Test results from patent US6375928B1, “Neutrophil stimulating peptides” (Peptech Limited, priority 1990, dated 2002).

What was measured:
Format in all cases: cell-based
neutrophils [1] = assay: Chemotactic properties, neutrophil migration under agarose; conditions: towards agent well; 1 × 10^−7 M fMLP, peptide, or 10^3 U/ml TNFα; 2×10^5 neutrophils
Procedure: 3 ml of molten 2% agarose was mixed with 3 ml of 2× concentrated medium 199 containing foetal calf serum (10%) and poured into Petri dishes. Sets of 3 wells of 2.5 mm diameter, each 3 mm apart, were cut in the agarose. 5 μl of neutrophils (2×10^5 cells) were added to the inner well, with chemotactic agent or control medium added to the outer wells. Migration at various time intervals was then measured.

neutrophils [2] = assay: Neutrophil random migration out of wells in agarose
Text: Migration of cells is an important property by which cells reach infection sites. Their accumulation at these sites is also dependent on the capacity of inflammatory mediators to inhibit their migration out of the sites.

monocytes = assay: Priming of monocytes for a respiratory burst (chemiluminescence); conditions: 10^6 monocytes/tube/ml, 30 min pre-incubation 37° C.
Procedure: Peptide 419 (SEQ ID NO. 18) was assayed for its ability to prime monocytes for a respiratory burst. This assay was conducted essentially as described above for neutrophils except that the cells were cultured for 24 hours prior to assay.
Peptide 419 100 μg/10^6 monocytes—30 mins pre-incubation at 37° C.

[3] = with fMLP, 419 100 μg/10^6 monocytes, 50 U TNF or no pre-treatment
[4] = without fMLP, 419 100 μg/10^6 monocytes or 50 U TNF

## TNF: Tumour necrosis factor, a product of activated macrophages; comparator
Neutrophils [1]
  Migration distance at 1.5 h, Agent: 0.48 mm
  Migration distance at 2.5 h, Agent: 0.69 mm
Neutrophils [2]
  effect on neutrophil random migration (in words): only partially migration inhibitory
monocytes; [3]
  Peak mV Chemiluminescence, Mean ± S.D.: 133.5 ± 41.719 mV
  Peak mV Chemiluminescence, experiment 1: 104.0 mV
  Peak mV Chemiluminescence, experiment 2: 163.0 mV
monocytes; [4]
  Peak mV Chemiluminescence, Mean ± S.D.: 1.885 ± 0.206 mV
  Peak mV Chemiluminescence, experiment 1: 2.03 mV
  Peak mV Chemiluminescence, experiment 2: 1.74 mV
